# Test results: US11713344B2 (DONG-A ST CO., LTD., priority 2017, dated 2023)
# Amino acid sequences for entries named in this document (tags omitted). Residues count along the entry.
# UniProt P47871, 26-477: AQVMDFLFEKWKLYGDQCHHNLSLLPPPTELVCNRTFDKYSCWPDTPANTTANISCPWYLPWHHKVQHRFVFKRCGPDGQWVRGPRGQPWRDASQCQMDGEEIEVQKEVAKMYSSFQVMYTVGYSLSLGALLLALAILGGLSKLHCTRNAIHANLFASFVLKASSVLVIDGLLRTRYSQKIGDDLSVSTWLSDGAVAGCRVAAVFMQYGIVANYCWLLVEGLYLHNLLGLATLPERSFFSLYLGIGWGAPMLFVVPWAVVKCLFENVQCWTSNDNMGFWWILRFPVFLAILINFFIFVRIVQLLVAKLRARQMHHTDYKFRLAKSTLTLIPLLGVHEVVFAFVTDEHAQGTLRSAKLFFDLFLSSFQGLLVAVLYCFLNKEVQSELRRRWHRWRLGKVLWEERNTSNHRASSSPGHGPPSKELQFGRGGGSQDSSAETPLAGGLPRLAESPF
# UniProt P43220, 24-463: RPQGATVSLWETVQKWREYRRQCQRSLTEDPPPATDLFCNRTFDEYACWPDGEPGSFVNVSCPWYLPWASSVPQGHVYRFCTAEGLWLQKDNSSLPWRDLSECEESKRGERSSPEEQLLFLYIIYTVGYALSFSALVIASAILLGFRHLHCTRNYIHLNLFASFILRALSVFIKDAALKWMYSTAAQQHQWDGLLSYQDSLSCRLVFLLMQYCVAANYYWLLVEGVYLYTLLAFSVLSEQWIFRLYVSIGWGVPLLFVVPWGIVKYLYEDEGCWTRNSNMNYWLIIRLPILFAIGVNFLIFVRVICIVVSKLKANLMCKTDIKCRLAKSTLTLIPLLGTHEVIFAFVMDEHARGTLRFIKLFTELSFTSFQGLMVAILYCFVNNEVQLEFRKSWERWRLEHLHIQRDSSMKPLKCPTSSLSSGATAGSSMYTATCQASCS
# How the values were obtained:
# Human glucagon receptors = Human glucagon receptors (Homo sapiens, UniProt P47871); assay: Glucagon receptor activation assay (CRE-luciferase reporter, CHO-K1)
# Human GLP-1 receptors = Human GLP-1 receptors (Homo sapiens, UniProt P43220); assay: GLP-1 receptor activation assay (CRE-luciferase reporter, CHO-K1)
Compound,EC50 (Human glucagon receptors),EC50 (Human GLP-1 receptors)
"CCCCCCCCCCCCCCCCCC(=O)N[C@@H](CCC(=O)NCCOCCOCC(=O)NCCOCCOCC(=O)NCCCC[C@H](NC(=O)[C@H](CC(=O)O)NC(=O)[C@H](CO)NC(=O)[C@@H](NC(=O)[C@H](Cc1ccccc1)NC(=O)[C@@H](NC(=O)CNC(=O)[C@H](CCC(N)=O)NC(=O)C(C)(C)NC(=O)[C@@H](N)Cc1c[nH]cn1)[C@@H](C)O)[C@@H](C)O)C(=O)N[C@@H](CO)C(=O)N[C@@H](CCCCN)C(=O)N[C@@H](Cc1ccc(O)cc1)C(=O)N[C@@H](CC(C)C)C(=O)N[C@@H](CC(=O)O)C(=O)N[C@H]1CCC(=O)Nc2ccc(cc2)NC(=O)CC[C@@H](C(=O)N[C@@H](CC(=O)O)C(=O)N[C@@H](Cc2ccccc2)C(=O)N[C@H](C(=O)N[C@@H](CCC(N)=O)C(=O)N[C@@H](Cc2c[nH]c3ccccc23)C(=O)N[C@@H](CC(C)C)C(=O)N[C@@H](CCSC)C(=O)N[C@@H](CC(N)=O)C(=O)N[C@H](C(=O)N[C@@H](CCCCN)C(=O)O)[C@@H](C)O)C(C)C)NC(=O)[C@H](C)NC(=O)[C@H](CCCNC(=N)N)NC(=O)[C@H](CCCNC(=N)N)NC1=O)C(=O)O [Compound 29, H-HAibQGTFTSDZSKYLDERRAEDFVQWLMNTK-OH]",< 0.01 nM,< 0.01 nM
"CCCCCCCCCCCCCCCCCC(=O)N[C@@H](CCC(=O)NCCOCCOCC(=O)NCCOCCOCC(=O)NCCCC[C@H](NC(=O)[C@H](CC(=O)O)NC(=O)[C@H](CO)NC(=O)[C@@H](NC(=O)[C@H](Cc1ccccc1)NC(=O)[C@@H](NC(=O)CNC(=O)[C@H](CCC(N)=O)NC(=O)C(C)(C)NC(=O)[C@@H](N)Cc1c[nH]cn1)[C@@H](C)O)[C@@H](C)O)C(=O)N[C@@H](CO)C(=O)N[C@@H](CCCCN)C(=O)N[C@@H](Cc1ccc(O)cc1)C(=O)N[C@@H](CC(C)C)C(=O)N[C@@H](CC(=O)O)C(=O)N[C@H]1CCC(=O)Nc2ccc(cc2)C(=O)NCCCC[C@@H](C(=O)N[C@@H](CC(=O)O)C(=O)N[C@@H](Cc2ccccc2)C(=O)N[C@H](C(=O)N[C@@H](CCC(N)=O)C(=O)N[C@@H](Cc2c[nH]c3ccccc23)C(=O)N[C@@H](CC(C)C)C(=O)N[C@@H](CCSC)C(=O)N[C@@H](CC(N)=O)C(=O)N[C@H](C(=O)N[C@@H](CCCCN)C(=O)O)[C@@H](C)O)C(C)C)NC(=O)[C@H](C)NC(=O)[C@H](CCCNC(=N)N)NC(=O)[C@H](CCCNC(=N)N)NC1=O)C(=O)O [Compound 34, H-HAi bQGTFTSDZSKYLDERRAKDFVQWLMNTK-OH]",< 0.01 nM,< 0.01 nM
